# Measured values as given in patent publication EP0821954A1, “Method for treating mental retardation” (ELI LILLY AND COMPANY, priority 1996, dated 1998).
# Protein sequences, listed by entry. Tags and fused reporters are not part of them.
# UniProt P08172, whole entry: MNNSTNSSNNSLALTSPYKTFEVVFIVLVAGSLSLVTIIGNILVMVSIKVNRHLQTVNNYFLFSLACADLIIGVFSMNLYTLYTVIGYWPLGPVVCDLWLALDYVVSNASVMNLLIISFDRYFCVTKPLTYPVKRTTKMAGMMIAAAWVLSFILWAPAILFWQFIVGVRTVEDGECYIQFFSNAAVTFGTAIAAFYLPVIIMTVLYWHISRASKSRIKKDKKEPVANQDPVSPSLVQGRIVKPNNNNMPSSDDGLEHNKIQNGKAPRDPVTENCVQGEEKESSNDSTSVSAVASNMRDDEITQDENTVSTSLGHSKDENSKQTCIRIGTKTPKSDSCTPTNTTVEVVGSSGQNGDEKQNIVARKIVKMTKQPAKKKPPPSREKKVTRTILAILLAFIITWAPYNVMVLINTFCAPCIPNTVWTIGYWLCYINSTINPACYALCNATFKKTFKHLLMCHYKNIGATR
# Molecular target: m2 receptors in brain stem (Homo sapiens, UniProt P08172)
# Experiment: 3H-quinuclidinyl benzilate binding to m2 receptors in brain stem
# Settings: inhibition of binding of 3H-quinuclidinyl benzilate
structure (smiles),measurement,value
"CCCCCCOc1nsnc1C1=CCCN(C)C1 [Xanomeline, 3-(4-hexyloxy-1,2,5-thiadiazol-3-yl)-1,2,5,6-tetrahydro-1-methylpyridine]",Ki,24 nM
